Values of other authors in article PMC5556379 (Journal of medicinal chemistry, 2017).

Test system: cultured cells
Conditions: cited from earlier work

CC1(C)CCC2=C(O1)c1ccccc1C(=O)C2=O [Compound 1, β-lapachone]
concentration required to induce cytotoxicity: 1000 to 5000 nM
